From ChEMBL document CHEMBL4834419 (J Med Chem, 2021)

Protein sequences, listed by entry. Tags and fused reporters are not part of them. Lines headed by an entry give the natural chain unless they say otherwise; changes in a name come on top.
UniProt P10276, whole entry: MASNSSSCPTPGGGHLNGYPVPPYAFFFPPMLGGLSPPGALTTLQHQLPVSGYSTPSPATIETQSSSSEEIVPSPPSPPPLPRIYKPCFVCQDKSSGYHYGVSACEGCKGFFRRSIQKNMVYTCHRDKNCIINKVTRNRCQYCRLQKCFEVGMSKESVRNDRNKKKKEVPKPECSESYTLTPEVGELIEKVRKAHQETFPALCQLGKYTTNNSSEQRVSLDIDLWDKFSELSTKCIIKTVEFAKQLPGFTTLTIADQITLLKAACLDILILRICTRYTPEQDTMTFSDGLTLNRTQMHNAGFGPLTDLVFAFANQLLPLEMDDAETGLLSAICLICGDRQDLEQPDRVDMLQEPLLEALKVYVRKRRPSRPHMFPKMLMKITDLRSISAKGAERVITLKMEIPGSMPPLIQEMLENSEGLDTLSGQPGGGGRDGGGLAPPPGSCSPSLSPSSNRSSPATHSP
UniProt P55055, whole entry: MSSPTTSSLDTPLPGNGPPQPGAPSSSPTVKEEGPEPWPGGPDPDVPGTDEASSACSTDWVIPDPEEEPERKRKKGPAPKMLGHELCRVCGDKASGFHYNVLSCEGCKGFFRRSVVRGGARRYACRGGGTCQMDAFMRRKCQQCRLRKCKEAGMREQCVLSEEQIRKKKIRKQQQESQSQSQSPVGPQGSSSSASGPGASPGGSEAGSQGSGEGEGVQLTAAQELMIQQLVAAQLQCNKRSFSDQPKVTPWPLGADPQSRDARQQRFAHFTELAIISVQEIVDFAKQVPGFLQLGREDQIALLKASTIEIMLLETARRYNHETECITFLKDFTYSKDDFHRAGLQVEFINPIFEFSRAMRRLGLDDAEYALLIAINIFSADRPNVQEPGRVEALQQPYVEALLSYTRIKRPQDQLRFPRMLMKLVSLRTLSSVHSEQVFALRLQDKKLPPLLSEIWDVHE
UniProt Q13133, whole entry: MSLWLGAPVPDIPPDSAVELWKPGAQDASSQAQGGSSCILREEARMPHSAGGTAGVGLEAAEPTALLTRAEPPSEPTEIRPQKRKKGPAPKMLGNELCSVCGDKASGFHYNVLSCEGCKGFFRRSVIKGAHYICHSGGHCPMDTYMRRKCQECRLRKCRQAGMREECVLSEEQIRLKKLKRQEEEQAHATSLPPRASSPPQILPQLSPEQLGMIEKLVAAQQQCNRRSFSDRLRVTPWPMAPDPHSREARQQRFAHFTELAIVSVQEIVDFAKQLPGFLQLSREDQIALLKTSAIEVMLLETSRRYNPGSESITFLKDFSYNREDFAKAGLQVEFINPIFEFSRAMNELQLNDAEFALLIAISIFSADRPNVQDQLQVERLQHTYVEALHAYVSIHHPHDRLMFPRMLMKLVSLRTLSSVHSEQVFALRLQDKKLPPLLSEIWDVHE
UniProt P37231: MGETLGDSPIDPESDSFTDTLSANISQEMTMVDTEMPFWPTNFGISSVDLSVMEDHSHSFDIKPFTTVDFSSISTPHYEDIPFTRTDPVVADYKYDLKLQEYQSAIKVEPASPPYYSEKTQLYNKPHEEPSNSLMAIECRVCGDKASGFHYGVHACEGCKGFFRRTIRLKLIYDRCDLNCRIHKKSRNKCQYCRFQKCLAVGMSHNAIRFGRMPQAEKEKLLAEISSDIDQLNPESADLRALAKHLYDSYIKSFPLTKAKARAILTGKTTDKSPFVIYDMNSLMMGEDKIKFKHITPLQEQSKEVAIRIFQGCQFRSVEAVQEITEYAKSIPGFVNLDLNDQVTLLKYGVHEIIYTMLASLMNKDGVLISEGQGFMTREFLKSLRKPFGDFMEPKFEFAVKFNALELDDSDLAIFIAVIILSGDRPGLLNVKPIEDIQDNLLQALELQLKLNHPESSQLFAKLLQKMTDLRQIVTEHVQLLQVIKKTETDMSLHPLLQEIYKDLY

Assays:
Format in all cases: cell-based
Settings in all cases: filed as agonist, time 14-16 hrs
[1] = molecular target: T1, Retinoic acid receptor RXR-gamma (Homo sapiens) (UniProt P48443); assay: Agonist activity against human RXRgamma in human HEK293T cells co-expressing pFR/pRL-Luc assessed as receptor activation at 10 uM incubated for 14 to 16 hrs by hybrid reporter gene assay relative to bexarotene
T1 sequence (whole entry): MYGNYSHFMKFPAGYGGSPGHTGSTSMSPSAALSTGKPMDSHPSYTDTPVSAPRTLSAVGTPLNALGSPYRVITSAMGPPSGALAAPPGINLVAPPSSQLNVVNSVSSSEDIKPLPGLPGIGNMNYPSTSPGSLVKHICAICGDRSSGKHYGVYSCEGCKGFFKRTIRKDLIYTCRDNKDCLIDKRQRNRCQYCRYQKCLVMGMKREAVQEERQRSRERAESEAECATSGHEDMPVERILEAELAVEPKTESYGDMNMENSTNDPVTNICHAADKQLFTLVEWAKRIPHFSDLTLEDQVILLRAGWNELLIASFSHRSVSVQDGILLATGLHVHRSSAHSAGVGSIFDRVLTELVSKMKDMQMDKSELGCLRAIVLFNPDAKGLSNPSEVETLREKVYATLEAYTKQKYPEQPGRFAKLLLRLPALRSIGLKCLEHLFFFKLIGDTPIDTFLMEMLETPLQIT
In short: (§1)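 Gal4 hybrid reporter assay in HEK293T cells, seeded 24 h before transfection (Lipofectamine LTX, Opti-MEM) with pFR-Luc, pRL-SV40 and pFA-CMV plasmid carrying the hinge region and LBD of the human receptor. After 5 h, compound added in 0.1% DMSO, with 0.1% DMSO alone as untreated control. Dual-Glo luciferase read after 14−16 h; firefly/renilla normalized; duplicates, ≥2 independent experiments.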

[2] = molecular target: T2, Peroxisome proliferator-activated receptor alpha (Homo sapiens) (UniProt Q07869); assay: Agonist activity against human PPARalpha in human HEK293T cells co-expressing pFR/pRL-Luc assessed as receptor activation at 10 uM incubated for 14 to 16 hrs by hybrid reporter gene assay relative to bexarotene; in short: as §1
T2 sequence (whole entry): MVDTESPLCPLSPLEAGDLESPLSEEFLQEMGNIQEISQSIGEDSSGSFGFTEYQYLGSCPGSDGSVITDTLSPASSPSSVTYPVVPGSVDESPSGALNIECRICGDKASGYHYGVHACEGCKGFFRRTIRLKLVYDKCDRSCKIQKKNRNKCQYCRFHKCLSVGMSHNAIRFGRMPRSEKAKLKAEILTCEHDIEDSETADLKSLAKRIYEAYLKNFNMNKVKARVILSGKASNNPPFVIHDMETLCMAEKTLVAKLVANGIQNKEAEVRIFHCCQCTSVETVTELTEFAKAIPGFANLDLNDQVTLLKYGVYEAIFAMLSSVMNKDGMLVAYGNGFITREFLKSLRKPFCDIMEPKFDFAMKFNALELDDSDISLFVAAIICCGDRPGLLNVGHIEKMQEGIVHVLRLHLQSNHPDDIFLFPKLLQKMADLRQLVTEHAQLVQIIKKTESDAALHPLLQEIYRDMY

[3] = molecular target: T3, Peroxisome proliferator-activated receptor delta (Homo sapiens) (UniProt Q03181); assay: Agonist activity against human PPARdelta in human HEK293T cells co-expressing pFR/pRL-Luc assessed as receptor activation at 10 uM incubated for 14 to 16 hrs by hybrid reporter gene assay relative to bexarotene; in short: as §1
T3 sequence (whole entry): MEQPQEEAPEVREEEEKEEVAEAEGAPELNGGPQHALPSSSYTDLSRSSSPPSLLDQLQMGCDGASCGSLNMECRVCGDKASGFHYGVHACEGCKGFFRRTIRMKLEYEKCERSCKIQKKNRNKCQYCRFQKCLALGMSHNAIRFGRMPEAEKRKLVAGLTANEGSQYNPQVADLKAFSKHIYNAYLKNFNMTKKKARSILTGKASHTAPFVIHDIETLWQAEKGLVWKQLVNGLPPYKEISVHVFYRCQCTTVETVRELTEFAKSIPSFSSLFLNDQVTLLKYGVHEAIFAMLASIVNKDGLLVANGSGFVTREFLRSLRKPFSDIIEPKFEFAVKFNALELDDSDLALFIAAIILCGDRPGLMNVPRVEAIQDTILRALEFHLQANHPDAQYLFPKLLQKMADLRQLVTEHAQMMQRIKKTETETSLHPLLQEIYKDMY

[4] = molecular target: Retinoic acid receptor alpha (Homo sapiens) (UniProt P10276); assay: Agonist activity against human RARalpha in human HEK293T cells co-expressing pFR/pRL-Luc assessed as receptor activation at 10 uM incubated for 14 to 16 hrs by hybrid reporter gene assay relative to bexarotene; in short: as §1
[5] = molecular target: Oxysterols receptor LXR-beta (Homo sapiens) (UniProt P55055); assay: Agonist activity against human LXRbeta in human HEK293T cells co-expressing pFR/pRL-Luc assessed as receptor activation at 10 uM incubated for 14 to 16 hrs by hybrid reporter gene assay relative to bexarotene; in short: as §1
[6] = molecular target: T4, Retinoic acid receptor RXR-alpha (Homo sapiens) (UniProt P19793); assay: Agonist activity against human RXRalpha in human HEK293T cells co-expressing pFR/pRL-Luc assessed as receptor activation at 10 uM incubated for 14 to 16 hrs by hybrid reporter gene assay relative to bexarotene; in short: as §1
T4 sequence (whole entry): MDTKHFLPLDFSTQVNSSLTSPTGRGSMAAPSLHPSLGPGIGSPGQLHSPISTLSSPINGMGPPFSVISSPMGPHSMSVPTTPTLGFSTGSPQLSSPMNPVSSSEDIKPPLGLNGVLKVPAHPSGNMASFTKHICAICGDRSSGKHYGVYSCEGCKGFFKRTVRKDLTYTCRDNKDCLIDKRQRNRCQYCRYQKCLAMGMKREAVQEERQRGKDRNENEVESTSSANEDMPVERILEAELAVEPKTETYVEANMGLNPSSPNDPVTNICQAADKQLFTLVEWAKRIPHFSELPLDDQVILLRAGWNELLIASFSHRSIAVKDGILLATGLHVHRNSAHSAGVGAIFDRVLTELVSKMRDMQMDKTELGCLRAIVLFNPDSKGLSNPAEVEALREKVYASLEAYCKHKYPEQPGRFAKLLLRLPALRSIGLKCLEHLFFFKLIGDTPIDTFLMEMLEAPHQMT

[7] = molecular target: Oxysterols receptor LXR-alpha (Homo sapiens) (UniProt Q13133); assay: Agonist activity against human LXRalpha in human HEK293T cells co-expressing pFR/pRL-Luc assessed as receptor activation at 10 uM incubated for 14 to 16 hrs by hybrid reporter gene assay relative to bexarotene; in short: as §1
[8] = molecular target: T5, Bile acid receptor (Homo sapiens) (UniProt Q96RI1); assay: Agonist activity against human FXR in human HEK293T cells co-expressing pFR/pRL-Luc assessed as receptor activation at 10 uM incubated for 14 to 16 hrs by hybrid reporter gene assay relative to bexarotene; in short: as §1
T5 sequence (whole entry): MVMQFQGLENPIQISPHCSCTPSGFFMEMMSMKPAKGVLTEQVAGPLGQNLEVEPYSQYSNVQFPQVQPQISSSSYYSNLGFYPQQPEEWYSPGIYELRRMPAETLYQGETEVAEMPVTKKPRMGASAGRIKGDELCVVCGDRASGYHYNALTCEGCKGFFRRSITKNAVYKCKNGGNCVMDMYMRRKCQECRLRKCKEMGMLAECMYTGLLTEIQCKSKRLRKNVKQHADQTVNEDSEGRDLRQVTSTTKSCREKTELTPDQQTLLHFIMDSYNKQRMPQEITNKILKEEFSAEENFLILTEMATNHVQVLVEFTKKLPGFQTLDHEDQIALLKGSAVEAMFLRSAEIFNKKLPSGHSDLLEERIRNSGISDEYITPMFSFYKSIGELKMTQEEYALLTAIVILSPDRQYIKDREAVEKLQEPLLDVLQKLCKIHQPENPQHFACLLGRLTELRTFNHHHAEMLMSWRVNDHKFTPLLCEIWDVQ

[9] = molecular target: Peroxisome proliferator-activated receptor gamma (Homo sapiens) (UniProt P37231); assay: Agonist activity against human PPARgamma in human HEK293T cells co-expressing pFR/pRL-Luc assessed as receptor activation at 10 uM incubated for 14 to 16 hrs by hybrid reporter gene assay relative to bexarotene; in short: as §1

Row | Activity [1] [%] | Activity [2] [%] | Activity [3] [%] | Activity [4] [%] | Activity [5] [%] | Activity [6] [%] | Activity [7] [%] | Activity [8] [%] | Activity [9] [%] | SMILES
1 | 115 | 3 | 1 | 1 | 2 | 80 | 1 | 1 | 7 | O=C(O)CCc1nc(-c2ccccc2)c(-c2cc(C(F)(F)F)cc(C(F)(F)F)c2)o1
2 | 93 | 6 | 7 | 5 | 4 | 34 | 4 | 2 | 7 | O=C(O)CCc1cc(-c2cc(Cl)cc(Cl)c2)n(-c2ccc(Cl)cc2)n1
